The numbers were not newly measured in US9145555B2, “Integrated—ligand-responsive microRNAs” (California Institute of Technology, priority 2009, dated 2015), which cites them from elsewhere.

In the series the test system is 293 cells. The settings on record: higher theophylline concentrations; cited from earlier work.

For the compound `Cn1c(=O)c2[nH]cnc2n(C)c1=O` [theophylline], the cytotoxicity entry is “cytotoxicity”.
